Reference: paper PMC6376029, “Diversity within the adenovirus fiber knob hypervariable loops influences primary receptor interactions” (Nature Communications, 2019)

Key:
[1] = target: T1, Recombinant Human CD46 Protein (His Tag) (human, UniProt P15529 35-343); test: SPR
T1 chain: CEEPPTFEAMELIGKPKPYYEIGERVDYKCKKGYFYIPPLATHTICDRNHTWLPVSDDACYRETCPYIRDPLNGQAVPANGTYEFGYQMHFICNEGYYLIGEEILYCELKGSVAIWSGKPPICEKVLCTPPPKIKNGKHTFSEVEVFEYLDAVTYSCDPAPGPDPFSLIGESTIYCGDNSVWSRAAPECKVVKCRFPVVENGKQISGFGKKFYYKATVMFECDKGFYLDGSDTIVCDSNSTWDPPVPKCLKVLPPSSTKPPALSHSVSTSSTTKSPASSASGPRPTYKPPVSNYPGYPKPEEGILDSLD

[2] = target: T2, Recombinant Human CXADR Fc Chimera Protein (CAR) (human, UniProt P78310); test: SPR
T2 chain: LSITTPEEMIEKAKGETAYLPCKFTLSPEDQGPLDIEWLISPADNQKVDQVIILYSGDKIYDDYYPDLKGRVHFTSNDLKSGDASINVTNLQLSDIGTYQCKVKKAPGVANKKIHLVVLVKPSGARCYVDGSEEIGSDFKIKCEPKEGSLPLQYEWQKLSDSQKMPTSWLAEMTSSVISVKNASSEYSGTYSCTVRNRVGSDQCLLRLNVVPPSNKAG

B1: HAdV-D26 fiber-knob protein (domain or fragment)
chain: RRTLWTTPDTSPNCKMSTEKDSKLTLTLTKCGSQVLGNVSLLAVTGEYHQMTATTKKDVKISLLFDENGILLPSSSLSKDYWNYRSDDSIVSQKYNNAVPFMPNLTAYPKPSAQNAKNYSRTKIISNVYLGALTYQPVIITIAFNQETENGCAYSITFTFTWQKDYSAQQFDVTSFTFSYLTQE
- Kd [1]: 50.8 µM
- koff [2]: 0.0074 s⁻¹
